We go through 8 compounds from paper PMC5431371, “Crystal structure-based discovery of a novel synthesized PARP1 inhibitor (OL-1) with apoptosis-inducing mechanisms in triple-negative breast cancer” (Scientific Reports, 2016).

Amino acid sequences for entries named in this document (tags omitted).
UniProt P09874, whole entry: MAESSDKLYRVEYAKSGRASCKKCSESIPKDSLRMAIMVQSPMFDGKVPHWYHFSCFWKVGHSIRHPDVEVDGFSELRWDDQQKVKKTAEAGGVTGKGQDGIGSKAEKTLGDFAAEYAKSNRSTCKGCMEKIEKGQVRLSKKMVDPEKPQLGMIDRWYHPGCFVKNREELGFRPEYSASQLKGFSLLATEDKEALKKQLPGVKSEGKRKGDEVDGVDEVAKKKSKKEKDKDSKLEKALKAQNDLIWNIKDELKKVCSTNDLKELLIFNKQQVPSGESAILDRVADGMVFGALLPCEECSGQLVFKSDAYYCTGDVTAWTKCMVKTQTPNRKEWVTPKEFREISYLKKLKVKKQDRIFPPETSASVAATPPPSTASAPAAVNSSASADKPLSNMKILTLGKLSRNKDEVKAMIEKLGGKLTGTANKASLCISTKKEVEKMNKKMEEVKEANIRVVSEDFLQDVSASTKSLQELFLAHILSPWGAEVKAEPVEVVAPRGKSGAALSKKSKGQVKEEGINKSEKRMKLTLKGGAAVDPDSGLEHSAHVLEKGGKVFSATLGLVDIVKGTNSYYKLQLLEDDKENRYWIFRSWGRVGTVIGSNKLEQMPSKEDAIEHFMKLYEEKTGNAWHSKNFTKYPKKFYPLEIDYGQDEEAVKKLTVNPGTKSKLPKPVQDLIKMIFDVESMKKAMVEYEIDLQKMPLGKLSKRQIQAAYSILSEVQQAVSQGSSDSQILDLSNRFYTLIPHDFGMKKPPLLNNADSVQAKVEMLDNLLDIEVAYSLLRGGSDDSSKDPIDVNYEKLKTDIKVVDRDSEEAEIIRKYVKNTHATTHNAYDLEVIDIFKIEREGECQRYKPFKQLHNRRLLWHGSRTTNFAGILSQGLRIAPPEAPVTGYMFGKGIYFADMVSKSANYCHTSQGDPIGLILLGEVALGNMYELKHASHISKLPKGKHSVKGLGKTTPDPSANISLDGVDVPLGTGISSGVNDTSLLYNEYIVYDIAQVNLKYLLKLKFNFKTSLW

One experiment addresses Recombinant Human PARP1 (Homo sapiens, UniProt P09874). In words: PARP1 enzymatic inhibition assay (Universal Chemiluminescent PARP Assay Kit). The class given is biochemical. As to conditions: read-out: Enzymatic inhibition (IC50, μM) PARP1, mean ± SD, at least three independent experiments.
In the next experiment the test system is MDA-MB-436 cells. Briefly: Cell viability assay (MTT). As to conditions: read-out: Anti-cell viability (IC50, μM) MDA-MB-436; MDA-MB-436 cells (BRAC1 mutant breast cancer); mean ± SD, at least three independent experiments. The method, then: Breast cancer cells including MCF-7, MDA-MB-231, MDA-MB-436 and MDA-MB-468 cells were obtained from American Type Culture Collection (ATCC, Manassas, VA, USA). The cells were fed with Leibovitz’s L-15 medium (MDA-MB-231, MDA-MB-436 and MDA-MB-468 cells) or DMEM medium (MCF-7 cells) containing 10% Fetal Bovine Serum, 100 μg/mL streptomycin and 100 U/mL penicillin. MDA-MB-231, MDA-MB-436 and MDA-MB-468 cells were cultured in humidified cell incubator with atmosphere at 37 °C while MCF-7 cells was cultured with 5% CO2 at 37 °C.
5 × 10^3 cells were seeded into each well in 96-well microplates and cultured for 24 h. Then the cells were exposed to different concentrations of OL-1 for 24 h. After drug treatment, the cell viabilities were detected by MTT assay.

Each structure is given as a SMILES string.

A word on the IC50: it is the midpoint of a concentration-inhibition curve. Consider `CC(C)OC(=O)Cc1ccc2c(c1)C(=CCCN(C)C)c1ccccc1CO2`, for which the IC50 on Recombinant Human PARP1 is above 20 µM.
For the compound `CN(C)CCC=C1c2ccccc2COc2ccc(CC(=O)N(C)C)cc21`, the IC50 at Recombinant Human PARP1 was 4.45 µM; in the experiment with MDA-MB-436 cells, 7.42 µM.
As for `CCCCNC(=O)Cc1ccc2c(c1)C(=CCCN(C)C)c1ccccc1CO2`, the IC50 on Recombinant Human PARP1 is above 20 µM.
On to `CNC(=O)Cc1ccc2c(c1)C(=CCCN(C)C)c1ccccc1CO2`, for which the IC50 at Recombinant Human PARP1 worked out at 0.724 µM; in the experiment with MDA-MB-436 cells, 1.32 µM.
`CCCNC(=O)Cc1ccc2c(c1)C(=CCCN(C)C)c1ccccc1CO2`: the concentration for half-maximal inhibition (IC50) at Recombinant Human PARP1 was determined as 13.5 µM; in the experiment on MDA-MB-436 cells, 19.3 µM.
As for `CN(C)CCC=C1c2ccccc2COc2ccc(CC(N)=O)cc21`, the IC50 at Recombinant Human PARP1 came to 0.344 µM; in the experiment with MDA-MB-436 cells, 1.94 µM.
Regarding `CCN(CC)C(=O)Cc1ccc2c(c1)C(=CCCN(C)C)c1ccccc1CO2`, the IC50 at Recombinant Human PARP1 was 18.9 µM; in the experiment with MDA-MB-436 cells it was above 20 µM.
Turning to `CCNC(=O)Cc1ccc2c(c1)C(=CCCN(C)C)c1ccccc1CO2`, the IC50 turned out to be 1.26 µM on Recombinant Human PARP1 and 4.22 µM with MDA-MB-436 cells.
